In PubChem BioAssay AID1779 (Sanford-Burnham Center for Chemical Genomics, 2009):
This is a selection; strong and weak results do not stand in their true shares. Some salts or complexes appear as unconnected parts, following the source record. Activity calls are given as the source filed them. Rule as the data show it: active = inhibition above about 50%; inactive = the rest.

Chains of the proteins cited; added tags and fusions are not shown.
UniProt Q9Y2R2, whole entry: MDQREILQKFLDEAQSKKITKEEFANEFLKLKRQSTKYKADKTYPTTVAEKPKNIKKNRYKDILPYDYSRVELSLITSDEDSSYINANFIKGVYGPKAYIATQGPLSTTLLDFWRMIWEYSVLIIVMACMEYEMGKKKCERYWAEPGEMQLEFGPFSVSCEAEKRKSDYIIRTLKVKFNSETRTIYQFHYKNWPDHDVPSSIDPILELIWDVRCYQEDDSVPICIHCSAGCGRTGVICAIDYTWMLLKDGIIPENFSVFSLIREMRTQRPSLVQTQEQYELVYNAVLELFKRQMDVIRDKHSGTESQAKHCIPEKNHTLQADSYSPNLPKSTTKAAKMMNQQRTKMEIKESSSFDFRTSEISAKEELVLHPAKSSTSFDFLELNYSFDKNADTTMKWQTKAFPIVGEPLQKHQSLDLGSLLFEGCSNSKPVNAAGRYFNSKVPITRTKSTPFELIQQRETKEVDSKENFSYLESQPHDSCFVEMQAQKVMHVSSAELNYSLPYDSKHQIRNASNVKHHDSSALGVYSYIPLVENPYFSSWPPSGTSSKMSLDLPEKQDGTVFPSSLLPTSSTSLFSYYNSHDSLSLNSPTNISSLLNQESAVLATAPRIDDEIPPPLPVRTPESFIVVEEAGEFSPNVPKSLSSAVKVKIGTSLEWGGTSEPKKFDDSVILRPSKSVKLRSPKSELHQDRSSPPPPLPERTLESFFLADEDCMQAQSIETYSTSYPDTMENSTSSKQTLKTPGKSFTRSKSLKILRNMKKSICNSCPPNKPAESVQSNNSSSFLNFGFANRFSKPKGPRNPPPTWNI

Each molecule was assayed against Tyrosine-protein phosphatase non-receptor type 22 (Homo sapiens) (UniProt Q9Y2R2) (assay: PTPN22 lymphoid phosphatase activity blockers – biochemical, fluorescence intensity, uHTS (AID 1779;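 also: plate controls were vehicle with enzyme for no effect and no enzyme for full effect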)). Settings: recombinant LYP phosphatase, at 11.5 µM, stronger effect = higher value.

SMILES | inhibition
CP(=O)(OC12CC3CC(CC(C3)C1)C2)OC12CC3CC(CC(C3)C1)C2 | inactive: 3%
CCOC(=O)c1ccc(NP(C)(=O)Oc2ccc(Cl)cc2)cc1 (stereo not given) | inactive: 2.4%
CP(=O)(Oc1ccccc1)N1CCOC1=O (stereo not given) | inactive: -8.9%
CCc1ccc(OP(C)(=O)Nc2cccnc2)cc1 (stereo not given) | inactive: 0.6%
COc1ccccc1OP(C)(=O)Nc1c(C)n(C)n(-c2ccccc2)c1=O (stereo not given) | inactive: -2.4%
O=C(OCCCN1CCCC1)C(O)(c1ccccc1)C1CCCCC1 (stereo not given) | inactive: -5.6%
CCN(CC)CC(O)COC(=O)C(O)(c1ccccc1)C1CCCCC1 (stereo not given) | inactive: -5.8%
COc1ccc(OP(C)(=O)Nc2ccc(Br)cc2)cc1 (stereo not given) | inactive: -3.6%
CN(C)C(=O)c1c([N+](=O)[O-])cc([N+](=O)[O-])cc1[N+](=O)[O-] | inactive: -5.3%
CP(=O)(Nc1ccc(Cl)cc1)Oc1ccc(F)cc1 (stereo not given) | inactive: -2.9%
CC(C)(C)c1ccc(OP(C)(=O)O)cc1 | inactive: 1%
COc1ccccc1OP(C)(=O)Nc1ccccc1Br (stereo not given) | inactive: -1.5%
CN(C)CCOC(=O)C(O)(c1ccccc1)C1CCCC1 (stereo not given) | inactive: -5.1%
COc1ccc(OP(C)(=O)Nc2ccccn2)cc1 (stereo not given) | inactive: -8.7%
COc1ccccc1OP(C)(=O)Nc1ccc(Br)cc1 (stereo not given) | inactive: -5.2%
CCc1ccc(OP(C)(=O)O)cc1 | inactive: -11%
CP(=O)(Nc1ccccn1)Oc1ccccc1 (stereo not given) | inactive: 2.2%
COc1ccccc1OP(C)(=O)Nc1ccc(C)cc1C (stereo not given) | inactive: -8.6%
O=[N+]([O-])c1cc([N+](=O)[O-])c(Nc2ccccn2)c([N+](=O)[O-])c1 | inactive: -7.8%
Cc1c(NP(C)(=O)Oc2ccc(C(C)C)cc2)c(=O)n(-c2ccccc2)n1C (stereo not given) | inactive: -7%
COc1ccc(OP(C)(=O)Nc2ccccc2Br)cc1 (stereo not given) | inactive: -5.8%
COc1ccccc1OP(C)(=O)Nc1ccc(C)c(C)c1 (stereo not given) | inactive: 0.9%

SMILES | inhibition
Cc1cc(C)cc(OP(C)(=O)Nc2cccc(C(F)(F)F)c2)c1 (stereo not given) | inactive: -1%
CP(=O)(OCCOc1ccccc1)OCCOc1ccccc1 | inactive: 0.2%
CP(=O)(Nc1ccc(Cl)cc1Cl)Oc1ccccc1 (stereo not given) | inactive: -1%
Cc1nc2ccc3ccccc3c2o1.O=[N+]([O-])c1cc([N+](=O)[O-])c(O)c([N+](=O)[O-])c1 | inactive: -4.2%
COc1ccc(OP(C)(=O)Nc2ccc(SC(F)(F)F)cc2)cc1 (stereo not given) | inactive: -5.3%
CCOC(=O)c1ccc(NP(C)(=O)Oc2ccc(F)cc2)cc1 (stereo not given) | inactive: -0.6%
CCCCCOc1ccc(NP(C)(=O)Oc2ccc(Cl)cc2Cl)cc1 (stereo not given) | inactive: 0.6%
O=[N+]([O-])c1cc([N+](=O)[O-])c(OC2CCCCC2O)c([N+](=O)[O-])c1 (stereo not given) | inactive: -3.3%
CP(=O)(Nc1ccccc1)Oc1ccc(F)cc1 (stereo not given) | inactive: -5.5%
CCN(CC)CCCOC(=O)C(O)(c1ccccc1)C1CCCCC1 (stereo not given) | inactive: -10.2%
CC(C)c1ccc(OP(C)(=O)Nc2ccc(SC(F)(F)F)cc2)cc1 (stereo not given) | inactive: 0.5%
CP(=O)(Nc1ccccc1F)Oc1ccccc1 (stereo not given) | inactive: -10.8%
COc1ccc2c(c1O)-c1c(O)c(OC)cc3c1[C@H](C2)[N+](C)(C)CC3.O=[N+]([O-])c1cc([N+](=O)[O-])c([O-])c([N+](=O)[O-])c1[O-] | inactive: -6.1%
O=C(OCCN1CCN(CCOCc2ccccc2)CC1)C(O)(c1ccccc1)c1ccccc1 | inactive: -8.9%
O=C(OC1CN2CCC1CC2)c1ccc([N+](=O)[O-])cc1 (stereo not given) | inactive: -8.3%
CCOP(C)(=S)SCC(=O)NC(C)(CC)C(=O)O (stereo not given) | inactive: -0.1%
CP(=O)(Nc1ccc(SC(F)(F)F)cc1)Oc1ccc(F)cc1 (stereo not given) | inactive: -6.4%
Cc1ccccc1NP(C)(=O)Nc1ccccc1C | inactive: -2.5%
CP(=O)(Nc1ccc2c(c1)OCCO2)Oc1ccccc1 (stereo not given) | inactive: 2.8%
COc1ccc(NP(C)(=O)Oc2ccccc2OC)cc1 (stereo not given) | inactive: -5.8%
CN(C)CCOC(=O)C(O)(c1ccccc1)C1CCCCC1 (stereo not given) | inactive: -12.1%
COc1ccc(OP(C)(=O)Nc2cccc(Br)c2)cc1 (stereo not given) | inactive: -2.8%

SMILES | inhibition
O=[N+]([O-])c1cc([N+](=O)[O-])c(NCC2CCS(=O)(=O)C2)c([N+](=O)[O-])c1 (stereo not given) | inactive: -1.4%
Cc1cc(-c2cccc3ccccc23)c(C)cn1.O=[N+]([O-])c1cc([N+](=O)[O-])c(O)c([N+](=O)[O-])c1 | inactive: -0.1%
O=[N+]([O-])c1ccc(OP2(=O)COCCO2)cc1 (stereo not given) | inactive: -4.6%
O=[N+]([O-])c1cc([N+](=O)[O-])c(Nc2nnnn2CCO)c([N+](=O)[O-])c1 | inactive: -1.6%
CCOC(=O)C(CC)C1=NC(C)(C)Cc2ccccc21.O=[N+]([O-])c1cc([N+](=O)[O-])c(O)c([N+](=O)[O-])c1 (stereo not given) | inactive: -1.7%
CP(=O)(Nc1ccc(SC(F)(F)F)cc1)Oc1ccccc1 (stereo not given) | inactive: -3%
CCCOc1ccc(NP(C)(=O)Oc2ccc(Cl)cc2)cc1 (stereo not given) | inactive: -5.7%
CN1CCCCC1COC(=O)C1(O)c2ccccc2CCc2ccccc21 (stereo not given) | inactive: 2%
COc1ccccc1OP(C)(=O)Nc1c(C)cccc1C (stereo not given) | inactive: -2.3%
O=[N+]([O-])c1cc([N+](=O)[O-])c(-n2nnc3ccccc32)c([N+](=O)[O-])c1 | inactive: -8.6%
Cc1nc2ccc3ccccc3c2s1.O=[N+]([O-])c1cc([N+](=O)[O-])c(O)c([N+](=O)[O-])c1 | inactive: -4.6%
Cc1cc(C)cc(OP(C)(=O)Nc2ccc(C)cc2C)c1 (stereo not given) | inactive: -7.7%
CCOC(=O)c1ccc(NP(C)(=O)Oc2cc(C)cc(C)c2)cc1 (stereo not given) | inactive: -0.7%
COc1ccccc1OP(C)(=O)Nc1cccc(Br)c1 (stereo not given) | inactive: -7.7%
CP(=O)(Nc1cccc(Br)c1)Oc1ccccc1 (stereo not given) | inactive: -2.9%
Cc1cc(C)cc(OP(C)(=O)Nc2ccccn2)c1 (stereo not given) | inactive: -8.9%
Cc1ccc(C)c(NP(C)(=O)Oc2ccccc2)c1 (stereo not given) | inactive: -6.6%
O=C(O)c1cccc(Nc2c([N+](=O)[O-])cc([N+](=O)[O-])cc2[N+](=O)[O-])c1 | inactive: 0.6%
CC1=NCCc2c1[nH]c1ccccc21.O=[N+]([O-])c1cc([N+](=O)[O-])c(O)c([N+](=O)[O-])c1 | inactive: -1.4%
CC(C)(C)c1ccc(OP(C)(=O)Nc2ccc(SC(F)(F)F)cc2)cc1 (stereo not given) | inactive: 10.4%
Cc1cccc(C)c1OP(C)(N)=O (stereo not given) | inactive: -10.6%
O=[N+]([O-])c1ccc2c(c1)C=Nc1ccccc1O2 | inactive: 2.6%

SMILES | inhibition
COc1ccccc1OP(C)(=O)Nc1cc(Cl)ccc1C (stereo not given) | inactive: -4.5%
COc1ccc(OP(C)(=O)Nc2cccc(F)c2)cc1 (stereo not given) | inactive: -1.4%
Cc1cc(C)cc(OP(C)(N)=O)c1 (stereo not given) | inactive: -4.5%
CCOC(=O)c1ccc(NP(C)(=O)Oc2ccccc2)cc1 (stereo not given) | inactive: -6.3%
COc1ccccc1OP(C)(=O)Nc1ccc(C)cc1 (stereo not given) | inactive: -5%
Cc1ccc(NP(C)(=O)Oc2ccccc2)c(C)c1 (stereo not given) | inactive: -2.9%
CCN(CC)CCCOC(=O)C(O)(c1ccccc1)c1ccccc1 | inactive: -1.4%
CCc1ccc(OP(C)(=O)N2CCN(c3ccc([N+](=O)[O-])cc3)CC2)cc1 (stereo not given) | inactive: -7.7%
CP(=O)(NC(=O)Nc1ccccc1)Oc1ccccc1 (stereo not given) | inactive: -8.1%
Cc1cc(C)cc(OP(C)(=O)Nc2ccc(SC(F)(F)F)cc2)c1 (stereo not given) | inactive: 1.9%
CP(=O)(Nc1ccc(SC(F)(F)F)cc1)Oc1ccc(Cl)cc1 (stereo not given) | inactive: 1.6%
Cc1cccc(C)c1OP(C)(=O)Nc1ccc(SC(F)(F)F)cc1 (stereo not given) | inactive: 4.5%
CP(=O)(Oc1ccccc1)OC(c1ccccc1)C(F)(F)F (stereo not given) | inactive: -1.1%
CP(=O)(Nc1ccccn1)Oc1ccc(Cl)cc1 (stereo not given) | inactive: -11.1%
CCOP(C)(=S)SCC(=O)NC(C)C(=O)O (stereo not given) | inactive: -4.4%
CCOC(=O)c1ccc(NP(C)(=O)Oc2ccc(OC)cc2)cc1 (stereo not given) | inactive: -9.5%
COc1ccccc1OP(C)(=O)Nc1ccccc1 (stereo not given) | inactive: -7.2%
CP(=O)(Nc1ccccc1Br)Oc1ccccc1 (stereo not given) | inactive: -7.2%
CP(=S)(Nn1cnnc1)Oc1ccccc1 (stereo not given) | inactive: -10%
